Data taken from ChEMBL document CHEMBL1151751, “Bisphosphonate inhibition of a Plasmodium farnesyl diphosphate synthase and a general method for predicting cell-based activity from enzyme data” (J Med Chem, 2008).

Experiment: Inhibition of Plasmodium vivax FPPS expressed in Escherichia coli BL21 by spectrophotometric assay
Procedure, shortened: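 Recombinant enzyme from lysed cells (lysozyme, nuclease, protease inhibitors), purified on Ni-NTA resin. The GPP + IPP condensation was followed at room temperature by a continuous spectrophotometric phosphate-release assay in 25 mM Hepes, 2.5 mM MgCl₂, pH 7.4. Inhibitors were preincubated with enzyme for 30 min at room temperature. IC50 was obtained by fitting the dose–response curve.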

`O.O=P(O)(O)C(O)(Cn1ccnc1)P(=O)(O)O` [ZOLEDRONIC ACID] showed a pIC50 of 6.1.
